PubChem BioAssay AID652083 (The Scripps Research Institute Molecular Screening Center, 2013)
Some of the results follow. Active and inactive are the calls of the source.

Tested on: 5-HT transporter
Experiment: PubChem AID 652083
Conditions: CEREP radioligand binding panel, % inhibition at 10 uM, stronger effect = higher value

With `COC(=O)c1cc(Br)cnc1N1CCC(NC2CCCCC2)C(O)C1` (stereo unspecified) the inhibition of specific binding was inactive: 24%.
